# Results published in US20140274969A1 (priority 2013, published 2014).
# Settings: high-dose group; normalized after discontinuation
# Experimental: Subjects were evaluated for adverse events daily while in hospital and at each subsequent clinical evaluation. All serious adverse events (Table 4) were reviewed promptly by a safety monitoring board composed of clinicians and clinician researchers not otherwise involved in this study. A summary of all adverse events was reviewed every 6 months.
# The model assumed that any change associated with treatment group was constant over these time points. An interaction term between treatment and injury type was included to allow for the possibility that changes associated with treatment group differed among motor-complete and motor-incomplete injured subjects. ASIA sensory scores were similarly evaluated. ASIA motor, pin-prick and light scores were evaluated by the Shapiro-Wilk normality test and were consistent with a normal distribution. Functional recovery data were compared over all data points. Adverse events were categorized by system and mean numbers of events per patient were compared within each system by ANOVA. All statistical tests were two-tailed (a=0.05). […] The Student t-test was then used to estimate the between group difference that this study was powered to detect with power=0.8 and a=0.05.
compound,measurement,value
"CN(C)c1ccc(O)c2c1C[C@H]1C[C@H]3[C@H](N(C)C)C(O)=C(C(N)=O)C(=O)[C@@]3(O)C(O)=C1C2=O [minocycline, (2E,4S,4aR,5aS,12aR)-2-(amino-hydroxy-methylidene)-4,7-bis(dimethylamino)-10,11,12a-trihydroxy-4-a,5,5a,6-tetrahydro-4H-tetracene-1,3,12-trione]",subjects with elevated liver enzymes (only adverse event likely related to minocycline),one
